{"source": "the supplement of paper PMC11018630", "note": "Counter-ions that a name gives are not always drawn. ± gives the standard deviation of the averaged measurements. This list holds what a sample rich in lowest values left over."}
{"system": "RDEB dermal fibroblasts EB71", "assay": "day of extracellular matrix detachment from plate (days); higher = delayed detachment (less fibrotic matrix)", "conditions": "compound concentration: 10 uM"}
{"smiles": "CC[C@H](C)[C@H](NC(=O)[C@H](CCC(=O)O)NC(=O)C(CCC(=O)O)NC(=O)[C@H](Cc1ccccc1)NC(=O)C(CC(=O)O)NC(=O)CNC(=O)C(CC(N)=O)NC(=O)CNC(=O)CNC(=O)CNC(=O)CNC(=O)[C@@H]1CCCN1C(=O)[C@H](CCCNC(=N)N)NC(=O)[C@@H]1CCCN1C(=O)[C@@H](N)Cc1ccccc1)C(=O)N1CCC[C@H]1C(=O)N[C@@H](CCC(=O)O)C(=O)N[C@@H](CCC(=O)O)C(=O)N[C@@H](Cc1ccc(O)cc1)C(=O)N[C@@H](CC(C)C)C(=O)O", "note": "(stereo partly specified) [Bivalirudin Trifluoroacetate]", "day of extracellular matrix detachment from plate": "19 ± 3"}
